Read-outs that look alike come from different tables or passages of the source.
Conditions: plasma, single oral 25 mg exemestane

## 17-hydroexemestane [17-HEXE]
OATP1B1 rs4149056T>C CC + CT group
  AUC0–8: 3.09 ng·h/mL
OATP1B1 rs4149056T>C TT group
  AUC0–8: 1.83 ng·h/mL

Reference: paper PMC5646416 (Journal of clinical pharmacy and therapeutics, 2017)
